This passage reports inhibition results from PubChem BioAssay AID651821 (The Scripps Research Institute Molecular Screening Center, 2012).

The entries are a selection whose mix differs from that of the whole data set. Some salts and complexes are drawn in separate pieces, as the source files them; their charges need not balance. Calls of active or inactive are those of the source.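 The calls were made as follows: active = inhibition above the plate cutoff, the mean of all test compounds on that plate plus 3 SD (cut at about 35% in these data); inactive = the rest.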

A word on the inhibition: it is the drop in the measured response relative to a control, in per cent.

A short description of this test: binders of r(CAG) RNA repeats, primary screen, biochemical, fluorescence (AID 651821).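 Also: 0% = DMSO alone and 100% = 100 µM mitoxantrone as full dye displacement; higher means more dye released from RNA so lower well fluorescence.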 The settings on record: r(CAG) RNA repeat, TO-PRO-1 dye displacement fluorescence; at 3 µM; hits give high values.
As for `O=C1C(O)=C([N+](=O)[O-])C(=O)C(O)=C1[N+](=O)[O-]`, the inhibition was inactive: 4.73%.

In the case of `Cc1cc(C)cc(OP(C)(=O)Nc2cccc(C(F)(F)F)c2)c1` (centres undefined), the inhibition was inactive: -5.8%.

On to `COc1ccccc1OP(C)(=O)Nc1ccc(C)c(C)c1` (centres undefined), for which the inhibition was inactive: -2.12%.

Regarding `COc1ccc(OP(C)(=O)Nc2ccccc2Br)cc1` (centres undefined), the inhibition is inactive: -6.11%.

Take `CP(=O)(OCCOc1ccccc1)OCCOc1ccccc1`: the inhibition is inactive: -5.59%.

For `CCCCCCCCCCCCCCCC1C[N+](C)(C)CCOP(C)(=O)O1` (centres undefined), the inhibition is inactive: 9.71%.

`CP(=O)(Nc1ccc(Cl)cc1Cl)Oc1ccccc1` (centres undefined): the inhibition was inactive: -8.73%.

In the case of `COc1ccccc1OP(C)(=O)Nc1ccc(Br)cc1` (centres undefined), the inhibition is inactive: -4.41%.

Regarding `COc1ccc(OP(C)(=O)Nc2ccccn2)cc1` (centres undefined), the inhibition is inactive: -3.21%.

As for `CN(C)CCOC(=O)C(O)(c1ccccc1)C1CCCC1` (centres undefined), the inhibition was inactive: -3.24%.

Regarding `O=[N+]([O-])c1cc([N+](=O)[O-])c(Nc2ccccn2)c([N+](=O)[O-])c1`, the inhibition was inactive: -1.08%.

For the compound `Cc1c(NP(C)(=O)Oc2ccc(C(C)C)cc2)c(=O)n(-c2ccccc2)n1C` (centres undefined), the inhibition is inactive: -6.58%.

As to `CP(=O)(Nc1ccccn1)Oc1ccccc1` (centres undefined), the inhibition is inactive: -2.47%.

Regarding `COc1ccccc1OP(C)(=O)Nc1ccc(C)cc1C` (centres undefined), the inhibition was inactive: -5.44%.

With `CCc1ccc(OP(C)(=O)O)cc1`, the inhibition was inactive: -1.42%.

Regarding `CCN(CC)CC(O)COC(=O)C(O)(c1ccccc1)C1CCCCC1` (centres undefined), the inhibition is inactive: -1.45%.

Take `COc1ccc(OP(C)(=O)Nc2ccc(Br)cc2)cc1` (centres undefined): the inhibition was inactive: -4.19%.

As for `COc1ccccc1OP(C)(=O)Nc1c(C)n(C)n(-c2ccccc2)c1=O` (centres undefined), the inhibition was inactive: -4.4%.

With `O=C(OCCCN1CCCC1)C(O)(c1ccccc1)C1CCCCC1` (centres undefined), the inhibition was inactive: -5.45%.

In the case of `CP(=O)(Oc1ccccc1)N1CCOC1=O` (centres undefined), the inhibition was inactive: 4.58%.

Regarding `CCc1ccc(OP(C)(=O)Nc2cccnc2)cc1` (centres undefined), the inhibition is inactive: -5.97%.

For the compound `CC(C)(C)c1ccc(OP(C)(=O)O)cc1`, the inhibition was inactive: 0.08%.

Turning to `COc1ccccc1OP(C)(=O)Nc1ccccc1Br` (centres undefined), the inhibition was inactive: -4.44%.

As for `CP(=O)(Nc1ccc(Cl)cc1)Oc1ccc(F)cc1` (centres undefined), the inhibition is inactive: -1.96%.

For `CN(C)C(=O)c1c([N+](=O)[O-])cc([N+](=O)[O-])cc1[N+](=O)[O-]`, the inhibition was inactive: 1.24%.

Take `Nc1ccc2c(ccc3cccnc32)n1.O=[N+]([O-])c1cc([N+](=O)[O-])c(O)c([N+](=O)[O-])c1`: the inhibition is inactive: 6.45%.

Regarding `CCOC(=O)c1ccc(NP(C)(=O)Oc2ccc(Cl)cc2)cc1` (centres undefined), the inhibition is inactive: -7.89%.

For `CP(=O)(OC12CC3CC(CC(C3)C1)C2)OC12CC3CC(CC(C3)C1)C2`, the inhibition is inactive: -6.23%.

Regarding `COc1ccc(OP(C)(=O)Nc2cccc(Br)c2)cc1` (centres undefined), the inhibition was inactive: 0.22%.

Consider `CN(C)CCOC(=O)C(O)(c1ccccc1)C1CCCCC1` (centres undefined), for which the inhibition was inactive: 3.41%.

Take `COc1ccc(NP(C)(=O)Oc2ccccc2OC)cc1` (centres undefined): the inhibition was inactive: -2.16%.

As to `O=[N+]([O-])c1ccc(OP2(=O)COCCO2)cc1` (centres undefined), the inhibition is inactive: -1.24%.

As for `Cc1cc(-c2cccc3ccccc23)c(C)cn1.O=[N+]([O-])c1cc([N+](=O)[O-])c(O)c([N+](=O)[O-])c1`, the inhibition is inactive: -3.52%.

Take `O=[N+]([O-])c1cc([N+](=O)[O-])c(NCC2CCS(=O)(=O)C2)c([N+](=O)[O-])c1` (centres undefined): the inhibition was inactive: 3%.

Turning to `Cc1c(C(c2ccc3c(c2)OCO3)c2c(C)n(C)n(-c3ccccc3)c2=O)c(=O)n(-c2ccccc2)n1C.O=[N+]([O-])c1cc([N+](=O)[O-])c(O)c([N+](=O)[O-])c1`, the inhibition is inactive: -4.77%.

Consider `CP(=O)(Nc1ccc(SC(F)(F)F)cc1)Oc1ccc(F)cc1` (centres undefined), for which the inhibition is inactive: -1.78%.

In the case of `CCOP(C)(=S)SCC(=O)NC(C)(CC)C(=O)O` (centres undefined), the inhibition was inactive: 0.36%.

For `CCOP(=O)(CC)OCC`, the inhibition was inactive: 1.53%.

As to `CP(=O)(Nc1ccc2c(c1)OCCO2)Oc1ccccc1` (centres undefined), the inhibition was inactive: -6.64%.

Consider `Cc1ccccc1NP(C)(=O)Nc1ccccc1C`, for which the inhibition was inactive: -7.14%.

As to `O=[N+]([O-])c1cc([N+](=O)[O-])c(C(F)(F)F)c([N+](=O)[O-])c1O`, the inhibition was inactive: 8.46%.

As to `O=[N+]([O-])c1cc([N+](=O)[O-])c(Nc2ccc(Cl)cc2)c([N+](=O)[O-])c1`, the inhibition is inactive: 6.22%.

Consider `CP(=O)(Nc1ccccc1F)Oc1ccccc1` (centres undefined), for which the inhibition was inactive: -1.9%.

As to `CC(C)c1ccc(OP(C)(=O)Nc2ccc(SC(F)(F)F)cc2)cc1` (centres undefined), the inhibition is inactive: -6.53%.

On to `O=C(OC1CN2CCC1CC2)c1ccc([N+](=O)[O-])cc1` (centres undefined), for which the inhibition was inactive: 2.9%.

`O=C(OCCN1CCN(CCOCc2ccccc2)CC1)C(O)(c1ccccc1)c1ccccc1`: the inhibition was inactive: -8.29%.

As to `COc1ccc2c(c1O)-c1c(O)c(OC)cc3c1[C@H](C2)[N+](C)(C)CC3.O=[N+]([O-])c1cc([N+](=O)[O-])c([O-])c([N+](=O)[O-])c1[O-]`, the inhibition was inactive: -0.13%.

`CCN(CC)CCCNc1ccccc1[N+](=O)[O-].O=[N+]([O-])c1cc([N+](=O)[O-])c(O)c([N+](=O)[O-])c1`: the inhibition was inactive: 1.88%.

For the compound `CCOC(=O)c1ccc(NP(C)(=O)Oc2ccc(F)cc2)cc1` (centres undefined), the inhibition was inactive: -6.4%.

On to `COc1ccc(OP(C)(=O)Nc2ccc(SC(F)(F)F)cc2)cc1` (centres undefined), for which the inhibition is inactive: -10.9%.

On to `Cc1c([N+](=O)[O-])cc([N+](=O)[O-])c(Br)c1[N+](=O)[O-]`, for which the inhibition was inactive: 1.88%.

On to `CCN(CC)CCCOC(=O)C(O)(c1ccccc1)C1CCCCC1` (centres undefined), for which the inhibition is inactive: -3.98%.

In the case of `CP(=O)(Nc1ccccc1)Oc1ccc(F)cc1` (centres undefined), the inhibition is inactive: 0.62%.

On to `CCCCCOc1ccc(NP(C)(=O)Oc2ccc(Cl)cc2Cl)cc1` (centres undefined), for which the inhibition was inactive: -3.09%.

Regarding `O=[N+]([O-])c1cc([N+](=O)[O-])c(OC2CCCCC2O)c([N+](=O)[O-])c1` (centres undefined), the inhibition is inactive: 1.87%.

As to `O=C(O)c1cccc(Nc2c([N+](=O)[O-])cc([N+](=O)[O-])cc2[N+](=O)[O-])c1`, the inhibition is inactive: 0.76%.

As for `CC1=NCCc2c1[nH]c1ccccc21.O=[N+]([O-])c1cc([N+](=O)[O-])c(O)c([N+](=O)[O-])c1`, the inhibition was inactive: 1.63%.

Turning to `COc1ccccc1OP(C)(=O)Nc1cccc(Br)c1` (centres undefined), the inhibition was inactive: -2.36%.

With `CCOC(=O)c1ccc(NP(C)(=O)Oc2cc(C)cc(C)c2)cc1` (centres undefined), the inhibition was inactive: -6.8%.

On to `Cc1cc(C)cc(OP(C)(=O)Nc2ccc(C)cc2C)c1` (centres undefined), for which the inhibition is inactive: -6.78%.

For `Cc1ccc(C)c(NP(C)(=O)Oc2ccccc2)c1` (centres undefined), the inhibition was inactive: -6.31%.

`CP(=O)(Nc1cccc(Br)c1)Oc1ccccc1` (centres undefined): the inhibition was inactive: -4.26%.

As for `Cc1cc(C)cc(OP(C)(=O)Nc2ccccn2)c1` (centres undefined), the inhibition was inactive: -5.13%.

For `O=[N+]([O-])c1cc([N+](=O)[O-])c(-n2nnc3ccccc32)c([N+](=O)[O-])c1`, the inhibition was inactive: 0.22%.

Take `CN(Cc1cccnc1)C(=O)COc1ccc(Cl)c(Cl)c1.O=[N+]([O-])c1cc([N+](=O)[O-])c(O)c([N+](=O)[O-])c1`: the inhibition is inactive: 1.16%.

As to `O=[N+]([O-])c1cc([N+](=O)[O-])c(-c2cnn(-c3ccccc3)c2)c([N+](=O)[O-])c1`, the inhibition was inactive: 1.84%.

Take `Cc1nc2ccc3ccccc3c2s1.O=[N+]([O-])c1cc([N+](=O)[O-])c(O)c([N+](=O)[O-])c1`: the inhibition was inactive: 6.32%.

In the case of `O=[N+]([O-])c1cc([N+](=O)[O-])c(Nc2nnnn2CCO)c([N+](=O)[O-])c1`, the inhibition is inactive: 5.85%.

As to `CCOC(=O)C(CC)C1=NC(C)(C)Cc2ccccc21.O=[N+]([O-])c1cc([N+](=O)[O-])c(O)c([N+](=O)[O-])c1` (centres undefined), the inhibition is inactive: -8.19%.

Regarding `COc1ccccc1OP(C)(=O)Nc1c(C)cccc1C` (centres undefined), the inhibition is inactive: -1.98%.

In the case of `CN1CCCCC1COC(=O)C1(O)c2ccccc2CCc2ccccc21` (centres undefined), the inhibition is inactive: -3.58%.

Take `COc1ccc(-c2ccccn2)cc1.O=[N+]([O-])c1cc([N+](=O)[O-])c(O)c([N+](=O)[O-])c1`: the inhibition was inactive: 2.74%.

For `CP(=O)(Nc1ccc(SC(F)(F)F)cc1)Oc1ccccc1` (centres undefined), the inhibition was inactive: -10.6%.

With `CCCOc1ccc(NP(C)(=O)Oc2ccc(Cl)cc2)cc1` (centres undefined), the inhibition was inactive: -9.4%.

As to `CP(=S)(Nn1cnnc1)Oc1ccccc1` (centres undefined), the inhibition is inactive: 1.54%.

With `CP(=O)(Nc1ccccc1Br)Oc1ccccc1` (centres undefined), the inhibition was inactive: -4.31%.

As for `COc1ccccc1OP(C)(=O)Nc1ccccc1` (centres undefined), the inhibition was inactive: -3.36%.

For the compound `Cc1cccc(C)c1OP(C)(=O)Nc1ccc(SC(F)(F)F)cc1` (centres undefined), the inhibition was inactive: 0.33%.

For `CP(=O)(Nc1ccc(SC(F)(F)F)cc1)Oc1ccc(Cl)cc1` (centres undefined), the inhibition was inactive: -4.04%.

In the case of `CP(=O)(Oc1ccccc1)OC(c1ccccc1)C(F)(F)F` (centres undefined), the inhibition is inactive: -7.89%.

As for `CCc1ccc(OP(C)(=O)N2CCN(c3ccc([N+](=O)[O-])cc3)CC2)cc1` (centres undefined), the inhibition is inactive: -6.94%.

Turning to `CP(=O)(NC(=O)Nc1ccccc1)Oc1ccccc1` (centres undefined), the inhibition was inactive: 1.95%.

With `Cc1cc(C)cc(OP(C)(=O)Nc2ccc(SC(F)(F)F)cc2)c1` (centres undefined), the inhibition is inactive: -6.95%.

On to `CCOC(=O)c1ccc(NP(C)(=O)Oc2ccc(OC)cc2)cc1` (centres undefined), for which the inhibition was inactive: -8.58%.

In the case of `O=[N+]([O-])c1cc([N+](=O)[O-])c(O)c([N+](=O)[O-])c1.c1ccc(Oc2ccncc2)cc1`, the inhibition is inactive: 2.48%.

Regarding `CCOP(C)(=S)SCC(=O)NC(C)C(=O)O` (centres undefined), the inhibition was inactive: -1.52%.

`CP(=O)(Nc1ccccn1)Oc1ccc(Cl)cc1` (centres undefined): the inhibition was inactive: -1.96%.

As to `CCN(CC)CCCOC(=O)C(O)(c1ccccc1)c1ccccc1`, the inhibition is inactive: -1.68%.

On to `COc1ccccc1-c1ccccn1.O=[N+]([O-])c1cc([N+](=O)[O-])c(O)c([N+](=O)[O-])c1`, for which the inhibition was inactive: 0.55%.

As to `O=[N+]([O-])c1cc([N+](=O)[O-])c(Nc2cccnc2)c([N+](=O)[O-])c1`, the inhibition is inactive: 4.51%.

`O=[N+]([O-])c1ccc2c(c1)C=Nc1ccccc1O2`: the inhibition is inactive: 3.96%.

On to `CC(C)(C)c1ccc(OP(C)(=O)Nc2ccc(SC(F)(F)F)cc2)cc1` (centres undefined), for which the inhibition was inactive: -4.97%.

`Cc1cccc(C)c1OP(C)(N)=O` (centres undefined): the inhibition was inactive: -1.32%.

Take `COc1ccccc1OP(C)(=O)Nc1ccc(C)cc1` (centres undefined): the inhibition is inactive: 3.77%.

Consider `Cc1ccc(NP(C)(=O)Oc2ccccc2)c(C)c1` (centres undefined), for which the inhibition is inactive: -3.2%.

Take `CCOC(=O)c1ccc(NP(C)(=O)Oc2ccccc2)cc1` (centres undefined): the inhibition was inactive: -5.73%.

Regarding `Cc1cc(C)cc(OP(C)(N)=O)c1` (centres undefined), the inhibition is inactive: 1.19%.

On to `COc1ccccc1OP(C)(=O)Nc1cc(Cl)ccc1C` (centres undefined), for which the inhibition is inactive: -4.99%.

As to `COc1ccc(OP(C)(=O)Nc2cccc(F)c2)cc1` (centres undefined), the inhibition was inactive: -2.45%.
